Data on 6 molecules can be found in ChEMBL document CHEMBL1938337, “Discovery of novel, potent, and selective inhibitors of 3-phosphoinositide-dependent kinase (PDK1)” (J Med Chem, 2011).

Amino acid sequences for entries named in this document (tags omitted).
UniProt P08684, whole entry: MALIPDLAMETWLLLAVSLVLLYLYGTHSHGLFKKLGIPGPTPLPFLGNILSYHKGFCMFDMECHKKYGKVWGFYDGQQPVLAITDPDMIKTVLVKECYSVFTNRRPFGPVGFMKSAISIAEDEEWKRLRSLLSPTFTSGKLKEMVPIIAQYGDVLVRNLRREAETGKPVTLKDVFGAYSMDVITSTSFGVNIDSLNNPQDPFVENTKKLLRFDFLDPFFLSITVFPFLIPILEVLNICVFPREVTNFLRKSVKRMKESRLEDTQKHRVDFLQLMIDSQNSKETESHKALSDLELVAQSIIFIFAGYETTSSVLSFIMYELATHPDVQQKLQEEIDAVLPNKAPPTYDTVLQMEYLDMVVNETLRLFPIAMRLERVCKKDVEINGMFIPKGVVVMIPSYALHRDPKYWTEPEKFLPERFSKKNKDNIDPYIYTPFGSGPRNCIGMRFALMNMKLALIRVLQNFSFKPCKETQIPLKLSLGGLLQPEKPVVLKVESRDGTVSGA

SMILES strings stand for the structures.

One series concerns the target CYP3A4 (Homo sapiens, UniProt P08684). Kind of series: Inhibition of CYP3A4 at 3 uM. The format is ADME.
Series [1] has as its system CYP3A4 (Homo sapiens). Kind of series: Inhibition of CYP3A4 at 3 uM.
The test system of series [2] is CYP3A4 (Homo sapiens). Kind of series: Inhibition of CYP3A4 at 3 uM. This is another data set of the same source.
For series [3], the system named is CYP3A4 (Homo sapiens). The series can be described thus: Inhibition of CYP3A4 at 3 uM. This is another data set of the same source.
The nature of series [4]: Ratio of EC50 for antiproliferation of human A549 cells to IC50 for inhibition of PDK1-mediated AKT1 phosphorylation at T308 in human A549 cells.
Series [5] in a line: Ratio of EC50 for antiproliferation of human H460 cells to IC50 for inhibition of PDK1-mediated AKT1 phosphorylation at T308 in human H460 cells.

Broadly, the inhibition is the relative decrease from the control value, in per cent.

`CC(C)n1cc(C(=O)c2cncc(N[C@@H]3CCC[C@@H]3c3ccc(F)cc3)n2)c2c(N)ncnc21`: the inhibition at 3 µM against CYP3A4, with CYP3A4 (Homo sapiens) [1], with CYP3A4 (Homo sapiens) [2] and in the series with CYP3A4 (Homo sapiens) [3] was 85% in each case.
`CC(C)n1cc(C(=O)c2cncc(N[C@@H]3CCO[C@@H]3c3ccc(F)cc3)n2)c2c(N)ncnc21`: the inhibition at 3 µM against CYP3A4, in the series with CYP3A4 (Homo sapiens) [1], in the series with CYP3A4 (Homo sapiens) [2] and in the series with CYP3A4 (Homo sapiens) [3] was 23% throughout.
As to `CC(C)n1cc(C(=O)c2cncc(N[C@@H]3CCN[C@@H]3c3ccc(F)cc3)n2)c2c(N)ncnc21`, the inhibition at 3 µM at CYP3A4, in the series with CYP3A4 (Homo sapiens) [1], in the series with CYP3A4 (Homo sapiens) [2] and with CYP3A4 (Homo sapiens) [3] was 27% each time.
`CC(C)n1cc(C(=O)c2cncc(N[C@@H]3CCN(C=O)[C@@H]3c3ccc(F)cc3)n2)c2c(N)ncnc21`: the inhibition at 3 µM at CYP3A4, in the series with CYP3A4 (Homo sapiens) [1], in the series with CYP3A4 (Homo sapiens) [2] and in the series on CYP3A4 (Homo sapiens) [3] was 38% each time. In addition, the Ratio came to 36 in series [4] and 6 in series [5].
Regarding `CC(=O)N1CC[C@@H](Nc2cncc(C(=O)c3cn(C(C)C)c4ncnc(N)c34)n2)[C@H]1c1ccc(F)cc1`, the inhibition at 3 µM against CYP3A4, with CYP3A4 (Homo sapiens) [1], with CYP3A4 (Homo sapiens) [2] and with CYP3A4 (Homo sapiens) [3] was 37% each time. Further, the Ratio in series [4] turned out to be 28; in series [5], 12.
Regarding `CC(=O)N1CC[C@@H](Nc2cncc(C(=O)c3cn(C(C)C)c4ncnc(N)c34)n2)[C@H]1c1ccccc1`, the inhibition at 3 µM at CYP3A4, in the series on CYP3A4 (Homo sapiens) [1], with CYP3A4 (Homo sapiens) [2] and with CYP3A4 (Homo sapiens) [3] was 54% in each case. The Ratio in series [4] was 17; in series [5], 5.
